{"sequences": {"note": "Amino acid sequences for entries named in this document (tags omitted). Residues count along the entry.", "UniProt O75116, 11-552 limits assumed": "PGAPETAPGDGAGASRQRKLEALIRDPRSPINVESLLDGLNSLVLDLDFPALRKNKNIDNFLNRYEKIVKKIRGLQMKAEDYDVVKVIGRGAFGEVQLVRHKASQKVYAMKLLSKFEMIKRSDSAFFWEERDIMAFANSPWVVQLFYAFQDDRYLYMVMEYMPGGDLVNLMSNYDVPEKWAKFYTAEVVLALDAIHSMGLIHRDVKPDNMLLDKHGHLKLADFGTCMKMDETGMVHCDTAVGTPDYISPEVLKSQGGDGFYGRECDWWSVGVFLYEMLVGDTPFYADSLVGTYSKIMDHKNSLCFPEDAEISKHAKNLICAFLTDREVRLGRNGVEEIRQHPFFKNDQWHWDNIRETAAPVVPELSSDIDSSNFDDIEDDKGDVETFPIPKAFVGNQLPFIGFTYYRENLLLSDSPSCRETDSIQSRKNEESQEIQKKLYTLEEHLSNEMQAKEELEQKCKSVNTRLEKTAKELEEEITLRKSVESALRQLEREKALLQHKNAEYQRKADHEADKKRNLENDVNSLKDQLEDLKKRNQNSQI"}, "source": "patent US20090325960A1", "about": "“METHOD FOR TREATING INFLAMMATORY DISEASES USING RHO KINASE INHIBITOR COMPOUNDS” (priority 2008, published 2009)", "target": "T1, ROCK2 (Homo sapiens, UniProt O75116)", "T1 construct": "purchased Upstate/Chemicon 14-451", "experiment": "Rho kinase inhibition assay (IMAP fluorescence polarization), ROCK2", "format": "biochemical", "settings": "average", "note": "Read-outs that look alike come from different tables or passages of the source."}
{"smiles": "Cc1ccc(CN2CC[C@@H](Nc3cccc4cnccc34)C2)cc1OCCO", "note": "[Compound 2.064, (R)-2-(5-((3-(isoquinolin-5-ylamino)pyrrolidin-1-yl)methyl)-2-methylphenoxy)ethanol]", "values": [{"measurement": "Ki", "setting": "IMAP fluorescence polarization, 10 μM ATP, read-out: ROCK2 Ki, Avg", "value": 2.2, "unit": "nM"}, {"measurement": "Ki", "setting": "read-out: ROCK2 Ki", "value": 2.2, "unit": "nM"}]}
